Literature values as cited in US11634428B2, “Deuterated angiotensin-converting enzyme-2 (ACE-2) inhibitors” (priority 2021, dated 2023).

Chains of the proteins cited; added tags and fusions are not shown. Residues count along the entry.
UniProt Q9BYF1, 18-805: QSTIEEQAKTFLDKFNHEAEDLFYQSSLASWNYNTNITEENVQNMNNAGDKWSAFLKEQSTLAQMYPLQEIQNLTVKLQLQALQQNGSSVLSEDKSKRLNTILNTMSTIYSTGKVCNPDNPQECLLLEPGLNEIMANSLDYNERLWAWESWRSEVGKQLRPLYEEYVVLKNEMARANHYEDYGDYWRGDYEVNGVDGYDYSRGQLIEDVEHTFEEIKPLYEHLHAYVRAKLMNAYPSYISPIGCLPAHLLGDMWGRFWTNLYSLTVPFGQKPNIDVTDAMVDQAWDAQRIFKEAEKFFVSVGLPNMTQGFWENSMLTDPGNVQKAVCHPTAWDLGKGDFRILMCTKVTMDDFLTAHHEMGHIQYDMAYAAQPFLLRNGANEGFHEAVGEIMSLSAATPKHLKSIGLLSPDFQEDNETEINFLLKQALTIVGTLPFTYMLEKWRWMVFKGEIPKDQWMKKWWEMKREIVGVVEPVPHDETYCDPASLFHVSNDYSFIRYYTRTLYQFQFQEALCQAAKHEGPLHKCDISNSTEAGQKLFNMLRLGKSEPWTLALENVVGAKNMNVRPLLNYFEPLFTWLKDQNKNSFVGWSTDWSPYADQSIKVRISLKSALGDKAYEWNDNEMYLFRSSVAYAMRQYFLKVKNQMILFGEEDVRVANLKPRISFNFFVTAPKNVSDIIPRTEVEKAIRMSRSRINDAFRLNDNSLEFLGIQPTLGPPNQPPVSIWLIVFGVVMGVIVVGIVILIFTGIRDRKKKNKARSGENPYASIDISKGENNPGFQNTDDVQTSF

Molecular target: ACE-2 (Homo sapiens, UniProt Q9BYF1)
Conditions: known ACE inhibitors

suppression of the catalytic activity of ACE-2: not suppressed
SMILES: CCOC(=O)[C@H](CCc1ccccc1)N[C@@H](C)C(=O)N1CCC[C@H]1C(=O)O [enalapril]
